Experimental data: PubChem BioAssay (NCI)
Some tests of the compounds listed are not included; inactive here does not mean inactive elsewhere.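 Step 1: Grow cells in 96-well plates. Step 2: Expose to compound for 48 hours at 5 concentrations. Step 3: Interpolate endpoints linearly; if unreached, use highest concentration. GI50: concentration for 50% inhibition of growth. Definition used: TGI = concentration required for complete inhibition of growth.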

How the values were obtained:
Experiment in all cases: growth of human tumour cells (NCI), 48 h
[1] = tested on: A549 NSCLC
[2] = tested on: K-562 leukemia
[3] = tested on: RPMI-8226 leukemia
[4] = tested on: HOP-92 NSCLC
[5] = tested on: HCT-116 colon
[6] = tested on: SW-620 colon
[7] = tested on: SF-295 CNS
[8] = tested on: UO-31 renal
[9] = tested on: 786-0 renal
[10] = tested on: MCF7 breast
[11] = tested on: HT29 colon
[12] = tested on: MDA-MB-231 breast
[13] = tested on: RXF 393 renal
[14] = tested on: BT-549 breast
[15] = tested on: SN12C renal
[16] = tested on: MDA-MB-435
[17] = tested on: MDA-N
[18] = tested on: NCI-H23 lung
[19] = tested on: SF-539 CNS
[20] = tested on: NCI-H460 lung
[21] = tested on: CCRF-CEM leukemia
[22] = tested on: A498 renal
[23] = tested on: OVCAR-5 ovarian
[24] = tested on: UACC-257 melanoma
[25] = tested on: COLO 205 colon
[26] = tested on: IGROV1 ovarian
[27] = tested on: LOX IMVI melanoma
[28] = tested on: MALME-3M melanoma
[29] = tested on: CAKI-1 renal
[30] = tested on: MOLT-4 leukemia
[31] = tested on: HS 578T breast
[32] = tested on: UACC-62 melanoma
[33] = tested on: ACHN renal
[34] = tested on: NCI-H522 lung
[35] = tested on: SNB-75 CNS
[36] = tested on: KM12 colon
[37] = tested on: SK-MEL-5 melanoma
[38] = tested on: SK-OV-3 ovarian
[39] = tested on: HL-60(TB) leukemia
[40] = tested on: SK-MEL-28 melanoma
[41] = tested on: DU-145 prostate
[42] = tested on: NCI-H226 lung
[43] = tested on: HCC-2998 colon
[44] = tested on: HCT-15 colon
[45] = tested on: SNB-19 CNS
[46] = tested on: U251 CNS
[47] = tested on: SF-268 CNS
[48] = tested on: OVCAR-4 ovarian
[49] = tested on: T-47D breast
[50] = tested on: NCI/ADR-RES ovarian
[51] = tested on: SR leukemia
[52] = tested on: PC-3 prostate
[53] = tested on: EKVX NSCLC
[54] = tested on: OVCAR-8 ovarian
[55] = tested on: SK-MEL-2 melanoma

**Q.** Which results are given for `CC#CC(O)(C(=O)OC1CN2CCC1CC2)C1CC1` (stereo not given)?
**A.** GI50 [1]: > 100 µM; TGI [1]: > 100 µM; GI50 [2]: > 100 µM; TGI [2]: > 100 µM; GI50 [3]: > 100 µM; TGI [3]: > 100 µM; GI50 [4]: > 100 µM; TGI [4]: > 100 µM; GI50 [5]: > 100 µM; TGI [5]: > 100 µM; GI50 [6]: > 100 µM; TGI [6]: > 100 µM; GI50 [7]: > 100 µM; TGI [7]: > 100 µM; GI50 [8]: > 100 µM; TGI [8]: > 100 µM; GI50 [9]: > 100 µM; TGI [9]: > 100 µM; GI50 [10]: > 100 µM; TGI [10]: > 100 µM; GI50 [11]: > 100 µM; TGI [11]: > 100 µM; GI50 [12]: > 100 µM; TGI [12]: > 100 µM; GI50 [13]: > 100 µM; TGI [13]: > 100 µM; GI50 [14]: > 100 µM; TGI [14]: > 100 µM; GI50 [15]: > 100 µM; TGI [15]: > 100 µM; GI50 [16]: > 100 µM; TGI [16]: > 100 µM; GI50 [17]: > 100 µM; TGI [17]: > 100 µM; GI50 [18]: > 100 µM; TGI [18]: > 100 µM; GI50 [19]: > 100 µM; TGI [19]: > 100 µM; GI50 [20]: > 100 µM; TGI [20]: > 100 µM; GI50 [21]: > 100 µM; TGI [21]: > 100 µM; GI50 [22]: > 100 µM; TGI [22]: > 100 µM; GI50 [23]: > 100 µM; TGI [23]: > 100 µM; GI50 [24]: > 100 µM; TGI [24]: > 100 µM; GI50 [25]: > 100 µM; TGI [25]: > 100 µM; GI50 [26]: > 100 µM; TGI [26]: > 100 µM; GI50 [27]: > 100 µM; TGI [27]: > 100 µM; GI50 [28]: > 100 µM; TGI [28]: > 100 µM; GI50 [29]: > 100 µM; TGI [29]: > 100 µM; GI50 [30]: > 100 µM; TGI [30]: > 100 µM; GI50 [31]: 46.7 µM; TGI [31]: > 100 µM; GI50 [32]: > 100 µM; TGI [32]: > 100 µM; GI50 [33]: > 100 µM; TGI [33]: > 100 µM; GI50 [34]: > 100 µM; TGI [34]: > 100 µM; GI50 [35]: > 100 µM; TGI [35]: > 100 µM; GI50 [36]: > 100 µM; TGI [36]: > 100 µM; GI50 [37]: > 100 µM; TGI [37]: > 100 µM; GI50 [38]: > 100 µM; TGI [38]: > 100 µM; GI50 [39]: > 100 µM; TGI [39]: > 100 µM; GI50 [40]: > 100 µM; TGI [40]: > 100 µM; GI50 [41]: > 100 µM; TGI [41]: > 100 µM; GI50 [42]: > 100 µM; TGI [42]: > 100 µM; GI50 [43]: > 100 µM; TGI [43]: > 100 µM; GI50 [44]: > 100 µM; TGI [44]: > 100 µM; GI50 [45]: > 100 µM; TGI [45]: > 100 µM; GI50 [46]: > 100 µM; TGI [46]: > 100 µM; GI50 [47]: > 100 µM; TGI [47]: > 100 µM; GI50 [48]: > 100 µM; TGI [48]: > 100 µM; GI50 [49]: > 100 µM; TGI [49]: > 100 µM; GI50 [50]: > 100 µM; TGI [50]: > 100 µM; GI50 [51]: > 100 µM; TGI [51]: > 100 µM; GI50 [52]: > 100 µM; TGI [52]: > 100 µM; GI50 [53]: > 100 µM; TGI [53]: > 100 µM; GI50 [54]: > 100 µM; TGI [54]: > 100 µM; GI50 [55]: > 100 µM; TGI [55]: > 100 µM
